Reference: US12247008B2, “Multi-aziridine compound” (COVESTRO (NETHERLANDS) B.V., priority 2020, dated 2025)

Tests used:
[1] = test system: Rtkn-GFP; experiment: ToxTracker genotoxicity assay, Rtkn-GFP reporter induction
[2] = test system: Bscl2-GFP; experiment: ToxTracker genotoxicity assay, Bscl2-GFP reporter induction
[3] = with S9 rat liver extract, 3 h exposure and 24 h recovery, at 50% cytotoxicity
[4] = without S9 rat liver extract, 24 h exposure, at 10% cytotoxicity
[5] = without S9 rat liver extract, 24 h exposure, at 50% cytotoxicity

With `C=CC(C)(CN1CC1C)OC(=O)NCCCCCC/N=c1\oc(=O)n(CCCCCCNC(=O)OC(C)(C=C)CN2CC2C)c(=O)n1CCCCCCNC(=O)OC(C)(C=C)CN1CC1C` (centres unmarked) [Ex. 5] the Rtkn induction level ([1]; with S9 rat liver extract, 3 h exposure and 24 h recovery, at 10% cytotoxicity) was 1.1 fold, the Rtkn induction level [1, 3] was 1.4 fold and the Rtkn induction level [1, 4] was 1.0 fold. The Rtkn induction level ([1]; without S9 rat liver extract, 24 h exposure, at 25% cytotoxicity) was 1.0 fold, the Rtkn induction level [1, 5] was 1.1 fold and the “Bscl 2 induction level” value [2, 3] was 1.7 fold. The “Bscl 2 induction level” value [2, 4] was 1.3 fold and the “Bscl 2 induction level” value [2, 5] was 1.7 fold.
